According to patent US6358492B1, “Dopamine transporter imaging ligand” (Research Triangle Institute, priority 1997, dated 2002):
Where two headings read alike, the source gives them in different places.

Legend:
[1] = molecular target: serotonin transporter (UniProt P31652); settings: read-out: IC50 5-HT [3H]Paroxetine; 0.2 nM [3H]paroxetine; values taken from literature (footnotes d-h); cited from earlier work
[2] = molecular target: serotonin transporter (UniProt P31652); type: binding; settings: read-out: IC50 5-HT [3H]Paroxetine; 0.2 nM [3H]paroxetine; mean ± standard error where given

SMILES: COC(=O)C1C(c2ccccc2)CC2CCC1N2C (centres unmarked) [1e]
- IC50 [1]: 2 µM

SMILES: COC(=O)C1C(c2ccccc2)CC2CCC1N2C (centres unmarked) [2e]
- IC50 [2]: 5.7 µM
